Consider one compound from ChEMBL document CHEMBL2440034, “Towards new C6-rigid S-DABO HIV-1 reverse transcriptase inhibitors: synthesis, biological investigation and molecular modeling studies” (Bioorg Med Chem, 2013).

As a reminder, the pIC50 is −log10 of the IC50, conventionally taken in molar units.

The target of this experiment is Human immunodeficiency virus type 1 reverse transcriptase (Human immunodeficiency virus 1, UniProt Q72547). The experiment can be described thus: Inhibition of recombinant wild type HIV-1 reverse transcriptase p66/p51 expressed in Escherichia coli JM109 using poly(rA)/oligo(dT)16 (1:1.2) as template/primer after 40 mins by spectrofluorometric analysis.

pIC50: −log10 of the molar value.

As to `Cc1cc(C#N)cc(C)c1Oc1nc(Nc2ccc(C#N)cc2)nc(N)c1Br` [ETRAVIRINE], the pIC50 was 7.77.
